Measurements published in PubChem BioAssay AID2280 (The Scripps Research Institute Molecular Screening Center, 2010).
This is a selection; strong and weak results do not stand in their true shares. The source made the active and inactive calls.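 How the source made its calls: active means percent inhibition above a per-plate cutoff, the plate mean of test compounds plus 3 SD (cut at about 30% in these data); inactive means the rest.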

The chains behind the UniProt entries cited, without tags or fusion partners. Where a name states a change or a piece, a line headed by the entry shows the natural chain unless it says otherwise.
UniProt Q17339: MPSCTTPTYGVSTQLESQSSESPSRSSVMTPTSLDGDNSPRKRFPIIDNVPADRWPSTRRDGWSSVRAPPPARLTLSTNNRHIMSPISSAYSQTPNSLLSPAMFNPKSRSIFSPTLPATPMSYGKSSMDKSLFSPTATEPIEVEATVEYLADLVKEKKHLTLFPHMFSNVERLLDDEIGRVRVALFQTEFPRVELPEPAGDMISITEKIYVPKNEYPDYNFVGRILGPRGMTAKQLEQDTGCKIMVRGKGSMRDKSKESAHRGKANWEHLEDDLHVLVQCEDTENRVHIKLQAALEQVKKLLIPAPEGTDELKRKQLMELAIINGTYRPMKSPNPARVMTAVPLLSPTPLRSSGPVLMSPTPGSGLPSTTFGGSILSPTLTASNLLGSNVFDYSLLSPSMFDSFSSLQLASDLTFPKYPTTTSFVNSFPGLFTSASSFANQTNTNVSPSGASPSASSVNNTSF

molecular target: Female germline-specific tumor suppressor gld-1 (Caenorhabditis elegans) (UniProt Q17339); experiment: GLD-1/TGE RNA complex disruptors, primary screen, biochemical, fluorescence polarization (AID 2280); conditions: purified GLD-1 + fluorescein TGE RNA, at 5.96 µM, stronger effect = higher value;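 further: 0% = DMSO wells with GLD-1 and probe and 100% = wells lacking GLD-1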

| SMILES | inhibition |
| --- | --- |
| COc1ccc(N/C(=N/P(=O)(N2CCOCC2)N2CCOCC2)N2CCOCC2)cc1 | inactive: 1.3% |
| O=C(OC1CN2CCC1CC2)C12CC3CC(CC(C3)C1)C2 (stereo not given) | inactive: 3.6% |
| Cc1cc(=O)[nH]c(N[N+](=O)[O-])n1 | inactive: 7.19% |
| Cc1c2c(nc3ccccc13)SC(C(Cl)Cl)C2 (stereo not given) | inactive: 4.58% |
| COc1ccc2nc(NP(=O)(c3ccccc3)c3ccccc3)sc2c1 | inactive: 2.85% |
| COc1cc(I)ccc1[As](=O)(O)O | inactive: -1.09% |
| CC(C)c1ccc(OP(=O)(Nc2ccccn2)Oc2ccccc2F)cc1 (stereo not given) | inactive: -4.25% |
| ClCCSc1nnc(-c2cccnc2)o1 | inactive: -2.56% |
| CC(C)NC(=O)NP(=O)(Oc1ccccc1)Oc1ccccc1 | inactive: -3.11% |
| CCN(CC)C(=S)SC(NC=O)C(Cl)(Cl)Cl (stereo not given) | inactive: 5.89% |
| O=[N+]([O-])c1cc([N+](=O)[O-])c(-c2ccn[nH]2)s1 | inactive: -0.24% |
| O=[As](O)(c1ccc(O)cc1)c1ccccc1O | inactive: -7.7% |
| C[As](=O)(O)c1cccc(C(=O)O)c1 | inactive: 6.38% |
| COc1cc(C(=O)NCC2(N3CCOCC3)CCCCC2)ccc1OCC(C)C | inactive: -0.86% |
| Cc1ccc2nc3c(c(C)c2c1)CC(C(Cl)Cl)S3 (stereo not given) | inactive: -5.01% |
| Cc1ccc(OP(=O)(Nc2ccc([N+](=O)[O-])cn2)Oc2ccc(C)cc2)cc1 | inactive: -4.2% |
| CCOC(=O)Nc1cccc([As](=O)(O)O)c1 | inactive: 1.63% |
| Cc1cc(SC(NC=O)C(Cl)(Cl)Cl)ncn1 (stereo not given) | inactive: 8.9% |
| O=P(Nc1ccccn1)(c1cccc2ccccc12)c1cccc2ccccc12 | inactive: 3.73% |
| CCOC(=O)Nc1ccc([As](=O)(O)O)c(O)c1 | inactive: 3.21% |
| Cc1cc(SC(NC(=O)c2ccccc2)C(Cl)(Cl)Cl)nc(C(C)C)n1 (stereo not given) | inactive: -0.88% |
| CCOC(=O)c1ccc(NC(=O)C(C)(CCl)SC)cc1 (stereo not given) | inactive: -1.61% |

| SMILES | inhibition |
| --- | --- |
| O=C(OC1CN2CCC1CC2)c1cccc([N+](=O)[O-])c1 (stereo not given) | inactive: 6.6% |
| CCC(C)N(CC(C)C)C(=S)SC(NC(C)=O)C(Cl)(Cl)Cl (stereo not given) | inactive: 5.55% |
| COP1(=S)c2c(C)nn(CCC#N)c2N=C(c2ccc(F)cc2)N1C (stereo not given) | inactive: 1.13% |
| O=C(COc1ccccc1)OC1CN2CCC1CC2 (stereo not given) | inactive: -2.67% |
| O=C(Nc1ccncc1[N+](=O)[O-])c1ccc([N+](=O)[O-])cc1[N+](=O)[O-] | inactive: 5.83% |
| COc1ccccc1CNC(=O)COC(=O)C(O)(c1ccccc1)c1ccccc1 | inactive: 2.26% |
| O=[As](O)(c1ccccc1Br)c1ccccc1Br | inactive: 0.58% |
| CC1(CBr)Cn2c(nc3ccccc3c2=O)S1 (stereo not given) | inactive: -1.67% |
| CN(C(=O)Cc1ccc(Cl)c(Cl)c1)[C@@H]1CCCC[C@H]1N1CCCC1 | inactive: 5.06% |
| CC(C)/C=N\N=C(\N)N[N+](=O)[O-] | inactive: -1.71% |
| CCOP(=O)(Nc1ccc(C)cn1)OCC | inactive: 4.67% |
| CN(CCCl)Cc1cc(Cl)c(NC2=NCCN2)c(Cl)c1 | inactive: 4.48% |
| CCC1=CC2Cc3nc4ccc(Cl)cc4c(N)c3C(C1)C2 (stereo not given) | inactive: -8.46% |
| O=P1(Nc2ccccn2)COc2ccccc2OC1 | inactive: 4.49% |
| CCOP(=O)(NC(=NC(C)c1ccccc1)NC(C)c1ccccc1)OCC (stereo not given) | inactive: -0.12% |
| Clc1n[nH]nc1-c1nn[nH][15n]1 | inactive: 1.45% |
| CC(C)(C)C(=O)NC(Sc1ncccn1)C(Cl)(Cl)Cl (stereo not given) | inactive: 3.84% |
| O=P1(Nc2ncccn2)COc2ccccc2OC1 | inactive: 4.1% |
| O=[As](O)(c1cccs1)c1cccs1 | inactive: -0.26% |
| Cc1ccc(OCC(=O)OC2CN3CCC2CC3)cc1 (stereo not given) | inactive: 1.4% |
| NS(=O)(=O)c1cccc(NC(=O)COC(=O)C(O)(c2ccccc2)c2ccccc2)c1 | inactive: 4.74% |
| O=P1(Nc2ccc(Br)cn2)COc2ccccc2OC1 | inactive: 3.43% |

| SMILES | inhibition |
| --- | --- |
| Nc1cccc([As](=O)(O)c2ccccc2)c1 | inactive: 4.9% |
| Cc1nn(-c2ccccc2)c2c1P(=O)(N1CCOCC1)N(C)C(c1ccccc1)=N2 (stereo not given) | inactive: -6.63% |
| Cc1ccc(C(=O)OC2CN3CCC2CC3)cc1 (stereo not given) | inactive: 5.64% |
| CC1CCC(C(C)C)C(OP(=O)(Nc2ccccn2)c2ccccc2)C1 (stereo not given) | inactive: -1.31% |
| O=C(/C=C/c1ccccc1)OC1CN2CCC1CC2 (stereo not given) | inactive: -1.78% |
| CN(C)C1(CNC(=O)c2ccc(S(C)(=O)=O)cc2)CCCCC1 | inactive: -1.92% |
| NC(=O)Nc1ccc([As](=O)(O)O)cc1 | inactive: -8.76% |
| O=[N+]([O-])c1ccc2c(c1)nnn2O | inactive: -1.11% |
| CN(C)C(=O)c1cc([N+](=O)[O-])cc2c1-c1c(cc([N+](=O)[O-])cc1[N+](=O)[O-])C2=O | inactive: -5.87% |
| CN(C(=O)Cc1ccc(Cl)c(Cl)c1)[C@H]1CC[C@@]2(CCCO2)C[C@@H]1N1CCCC1 | inactive: 1.1% |
| N#CCCN(C(=O)COC(=O)C(O)(c1ccccc1)c1ccccc1)c1ccc(F)cc1 | inactive: 12.8% |
| CN(C(=O)Cc1ccccc1)[C@@H]1CC[C@]2(CCCO2)C[C@H]1N1CCCC1 | inactive: 7.23% |
| CCOP1(=S)c2c(C)nn(CCC#N)c2N=C(c2ccc(F)cc2)N1C (stereo not given) | inactive: -4% |
| CS(=O)(=O)c1cc([N+](=O)[O-])c2no[n+]([O-])c2c1 | active: 32.2% |
| CCOP1(=S)c2c(C)nn(CCC#N)c2N=C(c2ccccc2F)N1C (stereo not given) | inactive: 2.84% |
| O=P(Nc1nccs1)(Oc1ccccc1)Oc1ccccc1 | inactive: 2.78% |
| O=P(Nc1nccs1)(c1ccccc1)c1nc2ccccc2s1 (stereo not given) | inactive: 16% |
| O=C(O)COc1ccc([As](=O)(O)O)cc1[N+](=O)[O-] | inactive: 7.67% |
| Nc1ccccc1[As](=O)(O)c1ccccc1 | inactive: -2.51% |
| CCCOP(=S)(Nc1nc(N)cc(=O)[nH]1)OCCC | inactive: 2.06% |
| Cc1ccc(NCCc2c([N+](=O)[O-])cc([N+](=O)[O-])cc2[N+](=O)[O-])cc1 | inactive: 1.98% |
